Reference: the NIST ThermoML archive (doi:10.1021/acs.jced.5b00662)
Values joined by “and” are separate entries in the source; they are usually repeats but may differ in a detail not shown here. Identical values can stand only once. Numbers after ± are expanded uncertainties.

Legend:
[1] = 101.33 kPa, Liquid; for speed of sound: Sing-around technique in a fixed-path interferometer; for mass density: Vibrating tube method; for viscosity: Concentric cylinders viscometry
[2] = refractive index (Na D-line) (dimensionless); conditions: 101.33 kPa, Liquid, Standard Abbe refractometry

OCCOCCOCCOCCO [tetraethylene glycol]
Conditions | mass density, [1] | refractive index, [2] | speed of sound, [1] [m/s] | viscosity, [1] [mPa·s]
283.15 K | 1132.1 ± 2 kg/m3 | 1.46333 ± 0.00061 | 1647.6 ± 1.6 | –
288.15 K | 1131.2 ± 2 kg/m3 and 1128.1 ± 2 kg/m3 | 1.46169 ± 0.00061 | 1630.6 ± 1.6 | 79.71 ± 3.2
293.15 K | 1127.1 ± 2 kg/m3 and 1124.1 ± 2 kg/m3 | 1.45999 ± 0.00061 | 1614.1 ± 1.6 | 59.68 ± 2.4
298.15 K | 1120.1 ± 2 kg/m3 and 1123.1 ± 2 kg/m3 | 1.45827 ± 0.00061 | 1597.9 ± 1.6 | 45.86 ± 1.9
303.15 K | 1116.1 ± 2 kg/m3 and 1119.1 ± 2 kg/m3 | 1.45661 ± 0.00061 | 1582 ± 1.6 | 35.92 ± 1.5
308.15 K | 1112.2 ± 2 kg/m3 and 1115.1 ± 2 kg/m3 | – | 1566.3 ± 1.6 | 28.46 ± 1.2
313.15 K | 1108.2 ± 2 kg/m3 and 1111.1 ± 2 kg/m3 | 1.45319 ± 0.00061 | 1550.6 ± 1.6 | 23.16 ± 0.94
318.15 K | 1107.2 ± 2 kg/m3 | – | – | 19.08 ± 0.77
323.15 K | 1100.2 ± 2 kg/m3 and 1103.2 ± 2 kg/m3 | 1.44976 ± 0.00061 | 1519.8 ± 1.6 | 15.89 ± 0.64
328.15 K | 1099.2 ± 2 kg/m3 | – | – | 13.38 ± 0.54
333.15 K | 1092.2 ± 2 kg/m3 and 1095.3 ± 2 kg/m3 | 1.44633 ± 0.00061 | 1489.4 ± 1.6 | 11.37 ± 0.46
338.15 K | 1091.3 ± 2 kg/m3 | – | – | 9.784 ± 0.4
343.15 K | 1087.3 ± 2 kg/m3 and 1084.3 ± 2 kg/m3 | 1.44288 ± 0.00061 | 1459.4 ± 1.6 | 8.48 ± 0.34
348.15 K | 1083.4 ± 2 kg/m3 | – | – | 7.405 ± 0.3
353.15 K | 1079.4 ± 2 kg/m3 | 1.43947 ± 0.00061 | – | 6.491 ± 0.26
358.15 K | 1075.3 ± 2 kg/m3 | – | – | 5.762 ± 0.23
363.15 K | 1071.3 ± 2 kg/m3 | – | – | 5.127 ± 0.21
368.15 K | 1067.3 ± 2 kg/m3 | – | – | 4.585 ± 0.19
373.15 K | 1063.2 ± 2 kg/m3 | – | – | 4.116 ± 0.17
